Active and inactive are the calls of the source. The calls are words filed in the database; no cut-off is given here.
What was measured:
[1] = target: T1, Solute carrier family 2, facilitated glucose transporter member 1 (Homo sapiens) (UniProt P11166); settings: SK-OV-3, dose 75.0 nM, time 24.0 hrs
T1 sequence (whole entry): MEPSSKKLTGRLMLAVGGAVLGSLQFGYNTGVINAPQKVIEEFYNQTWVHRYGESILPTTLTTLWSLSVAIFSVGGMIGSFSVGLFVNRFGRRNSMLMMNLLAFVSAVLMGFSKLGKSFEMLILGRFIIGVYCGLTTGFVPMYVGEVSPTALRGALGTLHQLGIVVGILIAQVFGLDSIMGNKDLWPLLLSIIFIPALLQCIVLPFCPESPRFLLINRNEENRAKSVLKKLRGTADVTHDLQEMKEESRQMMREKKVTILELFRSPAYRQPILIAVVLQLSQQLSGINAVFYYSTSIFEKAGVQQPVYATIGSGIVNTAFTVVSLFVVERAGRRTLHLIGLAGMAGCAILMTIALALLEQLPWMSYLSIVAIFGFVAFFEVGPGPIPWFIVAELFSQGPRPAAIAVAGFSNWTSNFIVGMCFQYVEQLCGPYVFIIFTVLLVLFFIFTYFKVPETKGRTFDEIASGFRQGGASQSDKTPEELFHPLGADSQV

[2] = target: T1, Solute carrier family 2, facilitated glucose transporter member 1 (Homo sapiens); settings: HEY, dose 75.0 nM, time 24.0 hrs
[3] = target: T1, Solute carrier family 2, facilitated glucose transporter member 1 (Homo sapiens); settings: SK-OV-3, dose 75.0 nM, time 24.0 hrs; remark: listed apart in the source
[4] = target: T1, Solute carrier family 2, facilitated glucose transporter member 1 (Homo sapiens); settings: OVCAR-3, dose 75.0 nM, time 24.0 hrs
[5] = target: T1, Solute carrier family 2, facilitated glucose transporter member 1 (Homo sapiens); settings: SK-OV-3, dose 75.0 nM, time 24.0 hrs; remark: listed apart in the source
[6] = target: T1, Solute carrier family 2, facilitated glucose transporter member 1 (Homo sapiens); settings: OVCAR-3, dose 75.0 nM, time 24.0 hrs; remark: listed apart in the source
[7] = target: T1, Solute carrier family 2, facilitated glucose transporter member 1 (Homo sapiens); settings: SK-OV-3, dose 75.0 nM, time 24.0 hrs; remark: listed apart in the source
[8] = target: T1, Solute carrier family 2, facilitated glucose transporter member 1 (Homo sapiens); settings: SK-OV-3, dose 75.0 nM, time 24.0 hrs; remark: listed apart in the source
[9] = target: T1, Solute carrier family 2, facilitated glucose transporter member 1 (Homo sapiens); settings: OVCAR-3, dose 75.0 nM, time 24.0 hrs; remark: listed apart in the source
[10] = target: T1, Solute carrier family 2, facilitated glucose transporter member 1 (Homo sapiens); settings: SK-OV-3, dose 75.0 nM, time 24.0 hrs; remark: listed apart in the source
[11] = target: T1, Solute carrier family 2, facilitated glucose transporter member 1 (Homo sapiens); settings: OVCAR-3, dose 75.0 nM, time 24.0 hrs; remark: listed apart in the source
[12] = target: T1, Solute carrier family 2, facilitated glucose transporter member 1 (Homo sapiens); settings: SK-OV-3, dose 75.0 nM, time 24.0 hrs; remark: listed apart in the source
[13] = target: T1, Solute carrier family 2, facilitated glucose transporter member 1 (Homo sapiens); settings: A2780, dose 75.0 nM, time 24.0 hrs
[14] = target: T1, Solute carrier family 2, facilitated glucose transporter member 1 (Homo sapiens); settings: SK-OV-3, dose 75.0 nM, time 24.0 hrs; remark: listed apart in the source
[15] = target: T1, Solute carrier family 2, facilitated glucose transporter member 1 (Homo sapiens); settings: HEY, dose 75.0 nM, time 24.0 hrs; remark: listed apart in the source
[16] = target: T1, Solute carrier family 2, facilitated glucose transporter member 1 (Homo sapiens); settings: OVCAR-3, dose 75.0 nM, time 24.0 hrs; remark: listed apart in the source
[17] = target: T1, Solute carrier family 2, facilitated glucose transporter member 1 (Homo sapiens); settings: A2780, dose 75.0 nM, time 24.0 hrs; remark: listed apart in the source
[18] = target: T1, Solute carrier family 2, facilitated glucose transporter member 1 (Homo sapiens); settings: A2780, dose 75.0 nM, time 24.0 hrs; remark: listed apart in the source
[19] = target: T1, Solute carrier family 2, facilitated glucose transporter member 1 (Homo sapiens); settings: OVCAR-3, dose 75.0 nM, time 24.0 hrs; remark: listed apart in the source
[20] = target: T1, Solute carrier family 2, facilitated glucose transporter member 1 (Homo sapiens); settings: SK-OV-3, dose 75.0 nM, time 24.0 hrs; remark: listed apart in the source
[21] = target: T1, Solute carrier family 2, facilitated glucose transporter member 1 (Homo sapiens); settings: SK-OV-3, dose 75.0 nM, time 24.0 hrs; remark: listed apart in the source
[22] = target: T1, Solute carrier family 2, facilitated glucose transporter member 1 (Homo sapiens); settings: OVCAR-3, dose 75.0 nM, time 24.0 hrs; remark: listed apart in the source
[23] = target: T1, Solute carrier family 2, facilitated glucose transporter member 1 (Homo sapiens); settings: A2780, dose 75.0 nM, time 24.0 hrs; remark: listed apart in the source
[24] = target: T1, Solute carrier family 2, facilitated glucose transporter member 1 (Homo sapiens); settings: A2780, dose 75.0 nM, time 24.0 hrs; remark: listed apart in the source
[25] = target: T1, Solute carrier family 2, facilitated glucose transporter member 1 (Homo sapiens); settings: A2780, dose 75.0 nM, time 24.0 hrs; remark: listed apart in the source
[26] = target: T1, Solute carrier family 2, facilitated glucose transporter member 1 (Homo sapiens); settings: A2780, dose 75.0 nM, time 24.0 hrs; remark: listed apart in the source
[27] = target: T1, Solute carrier family 2, facilitated glucose transporter member 1 (Homo sapiens); settings: OVCAR-3, dose 75.0 nM, time 24.0 hrs; remark: listed apart in the source
[28] = target: T1, Solute carrier family 2, facilitated glucose transporter member 1 (Homo sapiens); settings: OVCAR-3, dose 75.0 nM, time 24.0 hrs; remark: listed apart in the source
[29] = target: T1, Solute carrier family 2, facilitated glucose transporter member 1 (Homo sapiens); settings: A2780, dose 75.0 nM, time 24.0 hrs; remark: listed apart in the source
[30] = target: T1, Solute carrier family 2, facilitated glucose transporter member 1 (Homo sapiens); settings: A2780, dose 75.0 nM, time 24.0 hrs; remark: listed apart in the source

inhibition [1]: Active
inhibition [2]: Dose-Dependent Effect
inhibition [3]: Active
inhibition [4]: Dose-Dependent Effect
inhibition [5]: Active
inhibition [6]: Active
inhibition [7]: Active
inhibition [8]: Active
inhibition [9]: Active
inhibition [10]: Active
inhibition [11]: Active
inhibition [12]: Active
inhibition [13]: inactive
inhibition [14]: Active
inhibition [15]: Active
inhibition [16]: Active
inhibition [17]: inactive
inhibition [18]: inactive
inhibition [19]: Active
inhibition [20]: Dose-Dependent Effect
inhibition [21]: Active
inhibition [22]: Active
inhibition [23]: inactive
inhibition [24]: inactive
inhibition [25]: inactive
inhibition [26]: inactive
inhibition [27]: Active
inhibition [28]: Active
inhibition [29]: inactive
inhibition [30]: inactive
SMILES: Cc1c(NC(=O)c2cc(C(N)=O)nc3cc(F)ccc23)c(C(F)(F)F)nn1Cc1ccc(C#N)cc1 [BAY-876]

— ChEMBL document CHEMBL5712904, “Ovarian Cancer Relies on Glucose Transporter 1 to Fuel Glycolysis and Growth: Anti-Tumor Activity of BAY-876” (Cancers (Basel), 2018)
